Only a part is listed here, and it is no random draw. Records with an inconclusive call do not appear. Some salts or complexes appear as unconnected parts, following the source record. Active and inactive are the calls of the source. The call rests on the fitted dose curve; in most records, active means well fitted curve in the direction sought with a large enough effect; inconclusive means small, poorly fitted or top-dose-only effect, or another doubt; inactive means no such curve, though single readings can be large; an effect the other way counts as inactive or inconclusive.
Assay: Viability qHTS for spleen associated tyrosine kinase inhibitor (SYKi) drug resistant MV4-11 cells (AID 1963824); further: nearly all actives have a fitted effect of over 35% in size; further: potency means the concentration at half of the fitted maximal effect
Details: SYKi-resistant MV4-11 viability, CellTiter-Glo, 72 h; series mostly up to 45 µM
Text: Department of Medicine, Hematology/Oncology
University Hospital Frankfurt, Germany.
Trials have shown promising clinical activity of the selective SYK inhibitor entospletinib in patients with high expressing HOXA9/MEIS1 acute leukemias. As the development of resistance mechanisms is a common problem in the use of targeted drugs, we performed a chemical library screen to identify drug sensitivities in SYK inhibitor resistant AML cells. […] Glucocorticoids are potent immunosuppressants which work in part by inhibiting the transcription of cytokine genes.
Described herein is a viability screen to look for activity in the SYK inhibitor drug resistant cell line against four NCATS compound libraries (MIPE 5.0, NPC, NPACT, and Kinase) totaling 11372 compounds. Active hits were reacquired for confirmation and further secondary assay testing.
SEQUENCE No. (e.g., 1, 2, 3, etc.); […] (e.g., Cells, Incubation, Reagent, etc.); VALUE; DESCRIPTION.
1; Media; 2uL; white, solid-bottom Corning assay plate.
2; Compounds; 23nL; Echo acoustic dispenser.
3; Cell; 5uL; 500 cells per well.
4: Incubation; 72hr; 37 C, 5% CO2, 95% humidity.
5; Reagent; 3uL; CellTiter-Glo reagent (Promega).
6; Incubation; 10min; room temperature.
7; Detection; Luminescence; ViewLux plate reader (PerkinElmer).
NOTES (numbers refer to Sequence numbers above
1. Quantitative high-throughput screening (qHTS) of small molecule compounds was conducted on drug resistant SYKi MV4-11 cell line.
2. Twenty-three nanoliter of small molecule compounds were added to each assay plates using the Echo acoustic dispenser (Beckman Coulter).
3. Cells were seeded into the assay plates at a final density of 500 cells in 5uL of media per well using the Multidrop Combi dispenser.
4. Plates were covered with stainless steel gasketed lids and incubated for 72 hours at standard cell culture conditions.
5. Viability was assessed by adding 3uL of CellTiter-Glo detection reagent (Promega).
6. Plates were covered with gasket lids and incubated for 10 minutes at room temperature.
7. Luminescence was measured on a ViewLux plate reader (PerkinElmer).

Row | Compound | Potency
1 | C/C1=C2/N=C(C(CC(N)=O)C2(C)CCC(=O)NCC(C)OP(=O)([O-])OC2C(CO)OC(n3cnc4cc(C)c(C)cc43)C2O)C2(C)N=C(/C(C)=C3N=C(/C=C4N=C1C(CCC(N)=O)C\4(C)C)C(CCC(N)=O)C/3(C)CC(N)=O)C(CCC(N)=O)C2(C)CC(N)=O.[C-]#N.[Co] (configuration not stated) | active: 20.9 µM
2 | C/C1=C2N=C(/C=C3N=C(/C(C)=C4\N=C(C(CC(N)=O)C4(C)CCC(=O)NCC(C)OP(=O)([O-])OC4C(CO)OC(n5cnc6cc(C)c(C)cc65)C4O)C4(C)N=C1C(CCC(N)=O)C4(C)CC(N)=O)C(CCC(N)=O)C\3(C)C)C(CCC(N)=O)C/2(C)CC(N)=O.[C-]#N.[Co] (configuration not stated) | inactive
3 | C/C1=C2N=C(/C=C3N=C(/C(C)=C4\[N-][C@@](C)([C@@H]5N=C1[C@](C)(CCC(=O)NC[C@@H](C)OP(=O)([O-])O[C@H]1[C@@H](O)[C@@H](n6cnc7cc(C)c(C)cc76)O[C@@H]1CO)[C@H]5CC(N)=O)[C@@](C)(CC(N)=O)[C@@H]4CCC(N)=O)[C@@](C)(CC(N)=O)[C@@H]\3CCC(N)=O)C(C)(C)[C@@H]/2CCC(N)=O.[C-]#N.[Co+3] | inactive
4 | OCCSCCO | inactive

Assay: Cellular viability qHTS for adrenocortical cancer (ACC) cell line SW-13 (AID 1963989);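 further: cells grown in serum-free medium with ITS supplement; on the % scale 0 is the no-effect control and ±100 the full control effect; nearly all actives have a fitted effect of over 65% in size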
Details: SW-13 ACC cells viability, CellTiter-Glo, 48 h; hits give low values
Text: PI: Naris Nilubol, MD Surgical Oncology Program, National Cancer Institute (NCI) National Institute of Health (NIH), Bethesda, Maryland Adrenocortical cancer (ACC) is a rare malignancy with poor survival outcomes and few treatment options. Currently, mitotane is the only FDA-approved therapy for ACC. Although adjuvant radiation therapy is rarely utilized, it has the potential to improve survival in select cases. Through a quantitative high-throughput drug screen (qHTS), we identified auranofin (AF), a thioredoxin reductase (TXNRD) inhibitor, as a promising candidate drug. This study aims to evaluate whether AF can enhance the efficacy of radiation therapy in the treatment of ACC. Two human ACC cell lines, SW-13 and NCI-H295R, were screened using the National Center for Advancing Translational Sciences (NCATS) Pharmaceutical Collection (NPC) and the Mechanism Interrogation PlatE (MIPE) library (~4,991 compounds). CellTiter-Glo (Cat # G7570, Promega, Madison, WI) was utilized to measure cell viability. Described herein are the results of the corresponding viability assay.
PROTOCOL TABLE (as described by Inglese J, Shamu CE and Guy RK. 2007) SEQUENCE No. (e.g., 1, 2, 3, etc.); […] (e.g., Cells, Incubation, Reagent, etc.); VALUE; DESCRIPTION. 1; Cells; 5 uL; white, solid-bottom, 1536-well tissue-culture treated plates. 2; Time; overnight culture at 37C with 5% CO2. 3; Compounds and control; 23 nL; Kalypsis pin tool (Wako USA) equipped with a 1536-well pin head to transfer to the assay plates. 4; Time; 48 hours; 37C with 5% CO2. 5; Reagent; 4 uL; CellTiter-Glo luminescent substrate mix. 6; Time; 20 min at room temperature. 7; Detection; Luminescence; ViewLux plate reader NOTES (numbers refer to Sequence numbers above) 1. SW13 cells were harvested from a T175 flask and resuspended in ITS-supplemented DMEM serum-free medium at a concentration of 300 000 cells/mL. […] After incubation, luminescence was measured using a ViewLux plate reader (PerkinElmer, Waltham, MA, USA) with a clear filter was used to measure the number of metabolically competent cells. […]

Row | Compound | activity (max response)
5 | CCOP(=O)(CC)Oc1ccc([N+](=O)[O-])cc1 (configuration not stated) | inactive: -6.26%
6 | Cc1cccc([N+](=O)[O-])c1[N+](=O)[O-] | inactive: 11.5%
7 | O=[N+]([O-])c1cccc([N+](=O)[O-])c1 | inactive: -6.97%

Assay: Cellular viability qHTS for adrenocortical cancer (ACC) cell line NCI-H295R (AID 1963990);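 further: 0% = DMSO only wells and -100% = full killing with cytotoxic reference compound; nearly all actives have a fitted effect of over 60% in size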
Details: CellTiter-Glo ATP luminescence, 48 h; at 46.1 µM (top of the series) unless noted
Method in brief: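 Compound titrations (up to 46 uM final) are applied to NCI-H295R cultures for 48 h at 37C. Viable cell number is estimated by CellTiter-Glo signal, normalised to DMSO and doxorubicin controls.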

Row | Compound | activity change, negative = viability loss
8 | C/C1=C2/N=C(C(CC(N)=O)C2(C)CCC(=O)NCC(C)OP(=O)([O-])OC2C(CO)OC(n3cnc4cc(C)c(C)cc43)C2O)C2(C)N=C(/C(C)=C3N=C(/C=C4N=C1C(CCC(N)=O)C\4(C)C)C(CCC(N)=O)C/3(C)CC(N)=O)C(CCC(N)=O)C2(C)CC(N)=O.[C-]#N.[Co] (configuration not stated) | inactive: -26.6%
9 | C/C1=C2N=C(/C=C3N=C(/C(C)=C4\[N-][C@@](C)([C@@H]5N=C1[C@](C)(CCC(=O)NC[C@@H](C)OP(=O)([O-])O[C@H]1[C@@H](O)[C@@H](n6cnc7cc(C)c(C)cc76)O[C@@H]1CO)[C@H]5CC(N)=O)[C@@](C)(CC(N)=O)[C@@H]4CCC(N)=O)[C@@](C)(CC(N)=O)[C@@H]\3CCC(N)=O)C(C)(C)[C@@H]/2CCC(N)=O.[C-]#N.[Co+3] | inactive: -28.1%
10 | CCOP(=O)(CC)Oc1ccc([N+](=O)[O-])cc1 (configuration not stated) | inactive: -13%
11 | OCCSCCO | inactive: -3.55%
12 | Cc1cccc([N+](=O)[O-])c1[N+](=O)[O-] | inactive: 0.663% [at 92.7 µM]
